Results reported in US20100015650.

System: BRB1 tyrosine kinase substrate peptide

Substance	Signal to Noise Ratio with BRB1 Peptide (TR-FRET kinase assay; kinase 0.5 nM)
SRC	31.7
SYK	24.6
